# Results from US6737237B1, “Antimicrobial agents, diagnostic reagents, and vaccines based on unique Apicomplexan parasite components” (Apicomplexan Therapeutics, LLC, priority 1999, dated 2004).
# System: T. gondii tachyzoites (RH strain)
# Type: cell-based, Toxoplasma gondii
# Method: The improvements are based on microscopic visual imspection of infected and inhibitor treated cultures, and on quantitation of nucleic acid synthesis of the parasite by measure intake of ^3H uracil onto the parasite's nucleic acid. Uracil is not utilized by mammalian cells. […] Only the RH strain tachyzoites, cultured for up to 72 hours, had been used in previously reported assays. The use of Me49, Ptg, and R5 mutant are unique aspects of the methods used in these assays in this invention.
# In these assays toxicity of a candidate inhibitor was assessed by its ability to prevent growth of human foreskin fibroblasts (HFF) after 4 days and after 8 days as measured by tritiated thymidine uptake and microscopic evaluation. Confluent monolayers of HFF were infected with tachyzoites and bradyzoites. Inhibitor was added one hour later. Non-toxic doses were used in parasite growth inhibition assays. Parasite growth was measured by ability to incorporate tritiated uracil during the last 18 hours of culture.
# First the toxicity of gabaculine was assessed by its ability to prevent growth of human foreskin fibroblasts (HFF) as measured by ^3H-thymidine uptake and microscopic evaluation. […] Parasite growth was measured by the ability to incorporate ^3H-uracil during the last 18 hours of culture. In addition, parasite growth was evaluated microscopically in Giemsa stained slides. […]
structure (smiles),measurement,value
"O=C(NO)c1ccccc1O [SHAM, Salicylhydroxamic acid]",activity against T. gondii (tachyzoites),effective
